Test results reported in patent publication US20230381170A1, “METHOD FOR TREATING ALS/FTD THROUGH DEGRADATION OF RNA REPEAT EXPANSION” (University of Florida Research Foundation, Incorporated, priority 2020, published 2023).

Key:
r(G4C2)8 = assay: Biolayer interferometry (BLI) binding; conditions: r(G4C2) repeats
Experimental: Biolayer Interferometry (BLI). BLI studies were performed similarly as previously described (12) using an Octet RED96. Briefly, 5′-biotinylated nucleic acids were folded by heating at 95° C. for 4 min in 10 mM sodium phosphate buffer, pH 7, followed by slowly cooling to room temperature. Then, to the folded RNA were added the following components: 1.386 mL 1×DPBS (21-031-CV, Corning), 180 μL freshly prepared 1% (w/v) BSA, 36 μL 1% (v/v) Tween-20, and 18 μL DMSO (1% final concentration) in a final volume of 1.8 mL. The final concentration of RNA was 0.5 μM. Separately, serial dilutions of the compound of interest were prepared in the same buffer.
The resulting curves were analyzed and processed using Octet Data Analysis software version 9.1 by subtracting the response of the sensors recorded upon incubation with solutions containing compound and no RNA (parallel reference). The data were then fitted assuming reversible binding using the entire time interval for association and dissociation using either 1:1 or the 2:1 heterogeneous binding curve fitting model. The reported Kd,n, kon,n and koff,n values represent the average of two independent experiments.

[1] = system: r(G4C2)8 and hnRNP H1 complex; conditions: from reference (12); cited from earlier work

Q: For COc1ccc2[nH]c3c(C)c4ccncc4c(C)c3c2c1 [Compound 1], which Kd (r(G4C2)8) is on record?
A: Its Kd is 300 ± 30 nM.

Q: And the IC50 [1]?
A: Its IC50 is ~19 µM.
